Results from patent US7323490B2 (dated 2008).

Molecular target: T1, NQO2 (Rattus norvegicus, UniProt Q6AY80)
T1 sequence (Q6AY80 1-231): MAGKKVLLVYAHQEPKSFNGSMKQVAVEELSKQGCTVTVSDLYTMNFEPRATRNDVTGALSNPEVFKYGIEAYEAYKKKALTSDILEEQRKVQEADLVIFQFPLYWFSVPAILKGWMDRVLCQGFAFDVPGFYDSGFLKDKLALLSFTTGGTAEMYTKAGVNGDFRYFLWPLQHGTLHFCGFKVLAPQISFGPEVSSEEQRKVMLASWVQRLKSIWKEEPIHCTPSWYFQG
Type: binding
Conditions: 10 μM competitor

competitor binding to NQO2: did not display evidence of binding
SMILES: CC(C)c1nc(N(C)S(C)(=O)=O)nc(-c2ccc(F)cc2)c1/C=C/[C@@H](O)C[C@@H](O)CC(=O)O [rosuvastatin]
